Laboratory results published in patent EP4624466A1, “DEGRADER FOR DECOMPOSING CMET PROTEIN, AND PHARMACEUTICAL COMPOSITION COMPRISING SAME” (Innocure Therapeutics, Inc., priority 2022, dated 2024).

Protein sequences, listed by entry. Tags and fused reporters are not part of them. Residues count along the entry.
UniProt P08581, 25-1390 limits assumed: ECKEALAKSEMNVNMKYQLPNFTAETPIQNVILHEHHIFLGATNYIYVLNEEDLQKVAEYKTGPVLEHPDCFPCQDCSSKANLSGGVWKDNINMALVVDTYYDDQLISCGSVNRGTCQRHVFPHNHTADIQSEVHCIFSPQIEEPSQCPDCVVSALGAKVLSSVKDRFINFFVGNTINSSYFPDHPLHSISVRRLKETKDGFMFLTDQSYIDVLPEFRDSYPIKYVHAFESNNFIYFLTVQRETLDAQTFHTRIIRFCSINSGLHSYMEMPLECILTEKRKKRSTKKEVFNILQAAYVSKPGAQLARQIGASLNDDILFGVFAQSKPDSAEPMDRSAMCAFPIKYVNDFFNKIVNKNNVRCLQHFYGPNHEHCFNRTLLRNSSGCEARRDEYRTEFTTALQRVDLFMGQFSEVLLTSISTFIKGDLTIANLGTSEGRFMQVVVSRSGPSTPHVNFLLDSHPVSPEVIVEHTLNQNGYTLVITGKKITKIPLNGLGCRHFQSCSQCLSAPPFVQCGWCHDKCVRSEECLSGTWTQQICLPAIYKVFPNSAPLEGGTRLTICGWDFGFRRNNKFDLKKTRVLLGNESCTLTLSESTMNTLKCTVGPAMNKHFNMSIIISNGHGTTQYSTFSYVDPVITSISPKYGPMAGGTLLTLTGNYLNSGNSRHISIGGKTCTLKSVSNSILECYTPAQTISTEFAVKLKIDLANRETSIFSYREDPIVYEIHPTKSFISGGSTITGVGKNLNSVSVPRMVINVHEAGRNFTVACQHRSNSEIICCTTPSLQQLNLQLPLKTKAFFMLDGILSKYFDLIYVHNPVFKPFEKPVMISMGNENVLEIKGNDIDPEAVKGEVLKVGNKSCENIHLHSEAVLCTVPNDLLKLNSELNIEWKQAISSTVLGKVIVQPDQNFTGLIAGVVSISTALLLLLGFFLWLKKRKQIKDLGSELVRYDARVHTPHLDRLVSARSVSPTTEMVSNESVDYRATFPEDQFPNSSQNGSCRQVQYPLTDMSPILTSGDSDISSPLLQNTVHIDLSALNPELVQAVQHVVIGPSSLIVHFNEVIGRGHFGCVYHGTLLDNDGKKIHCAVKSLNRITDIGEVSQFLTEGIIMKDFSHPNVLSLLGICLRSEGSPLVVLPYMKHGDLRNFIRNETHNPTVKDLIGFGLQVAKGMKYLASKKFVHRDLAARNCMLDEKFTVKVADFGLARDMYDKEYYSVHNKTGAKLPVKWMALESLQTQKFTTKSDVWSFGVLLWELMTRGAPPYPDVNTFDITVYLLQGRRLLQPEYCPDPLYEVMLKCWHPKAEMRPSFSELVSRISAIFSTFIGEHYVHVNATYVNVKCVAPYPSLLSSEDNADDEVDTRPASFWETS

Experiments:
SNU-638 = assay: Cell viability / antiproliferative assay (WST-8), SNU-638; settings: read-out: SNU-638 IC50, SNU-638 cells, 72 hours, Table 2
c-MET = c-MET (Homo sapiens, UniProt P08581); assay: c-MET protein degradation (Simple Western), SNU-638; settings: read-out: SNU-638 DC50; c-MET overexpressing gastric cancer cell line SNU-638, treated 24 hours; Table 2
Method: In order to assess the resolution of the compound of the present invention for c-MET expressed in cells, cells were dispensed in a 12-well plate at a concentration of 2 × 10^5 cells/well, and then gastric cancer cell lines were treated with samples for 24 hours and lung cancer cell lines were treated for 48 hours. Cell lysates were collected using a scraper on ice, centrifuged at 4°C15,000 rpm for 30 min to obtain a protein-containing supernatant. Protein expression was then measured using the Simple Western Automated Western Blot System Abby instrument using 3 µg of protein for each sample. SDS and heat-induced denaturation proteins were separated by molecular weight, attached to capillary, reacted with anti-c-MET or anti-GAPDH antibodies, which are primary antibodies, and then reacted with HRP-conjugated secondary antibodies, and analyzed the protein expression signal with compass software. Protein expression was normalized based on the expression value of GAPDH, and protein development in each sample was measured as a percentage (%) based on 100% of samples treated with 0.1% DMSO carriers, and DC50 (concentration of a compound where 50% protein inhibition is achieved) was calculated from the change in protein expression amount due to compound treatment.

N#Cc1cccc(-c2ccc(=O)n(Cc3cccc(-c4ncc(OCC5CCN(CCCCCc6cccc7cnn(C8CCC(=O)NC8=O)c(=O)c67)CC5)cn4)c3)n2)c1 (centres unmarked)
IC50 (SNU-638): < 100 nM
DC50 (c-MET): < 100 nM
